Measurements as given in US20160116448A1, “pH-MODULATED QUENCHERS OF FLUORESCENCE” (published 2016).

Legend:
[1] = Light absorption of the anions derived from the compounds (maximal absorption wavelength, molar extinction coefficient); conditions: anion derived from the compound
[2] = pKa of compounds of formula (I); conditions: compound of formula (I)
[3] = Stability to reduction by dithiothreitol (DTT), visible spectrum
[4] = after treatment with dithiothreitol, 1 cm cuvette
[5] = methanol / 1×PCR buffer, before dithiothreitol, 1 cm cuvette
[6] = with dithiothreitol, after 95 °C water bath for 5 minutes, cooled to room temperature

| SMILES | ε (molar extinction coefficient) [1] | λ max [1] [nM] | pKa [2] | Absorbance [3, 4] | observed λ max [3, 4] [nM] | Absorbance [3, 5] | observed λ max [3, 5] [nM] | visible spectrum after heating with DTT ([3]; with dithiothreitol, after 95 °C water bath for 5 minutes) | Absorbance [3, 6] | λ max [3, 6] [nM] |
| --- | --- | --- | --- | --- | --- | --- | --- | --- | --- | --- |
| CC(C)OC(=O)C(c1ccc([N+](=O)[O-])cc1[N+](=O)[O-])c1ncc([N+](=O)[O-])cc1[N+](=O)[O-] (stereo not drawn) | 29,950 cm^−1 M^−1 | 592 | 4.3 |  |  |  |  |  |  |  |
| CCCCCCOC(=O)C(c1ccc([N+](=O)[O-])cc1[N+](=O)[O-])c1ccc([N+](=O)[O-])cc1[N+](=O)[O-] |  | 652 | 7.8 | 3.193 | 655 | 3.205 | 655 | essentially unchanged | 3.044 | 655 |
| CCN(CC)C(=O)C(c1ccc([N+](=O)[O-])cc1[N+](=O)[O-])c1ncc([N+](=O)[O-])cc1[N+](=O)[O-] (stereo not drawn) | 22,000 cm^−1 M^−1 | 616 | 5.5 |  |  |  |  |  |  |  |
